From patent publication US8945566B2, “Methods for improving the bioactivity of therapeutic IgE antibodies for the treatment of disease” (Quest PharmaTech, Inc., priority 2008, dated 2015)

Tested on: ECD-Her2
Test: antigen presentation assay (APA): dendritic cells loaded with Her2 antigen and antibody, T cell IFN-γ staining
Format: cell-based, human
Settings: DC loaded with ECD-Her2 plus Ab, three rounds of stimulation, intracellular cytokine staining and flow cytometry
Experimental: FIG. 1: schematic of antigen presentation assay (APA). Dendritic cells (DC) are cultured from human PBMCs in the presence of IL-4 and GM-CSF. On day 7, the primary culture is loaded with tumor associated antigen (TAA) and antibody (Ab) and matured with a standard maturation cocktail (e.g. TNF-α/IFN-α). Next, T cells are added and cultured for 7 days. Subsequently, the T cell culture is stimulated with two additional rounds of TAA/Ab using fresh DC cultures. Following the third round of TAA/Ab stimulation, the T cells are analyzed for tumor-specific responses.
Human dendritic cells (DC) are cultured from human PBMCs in the presence of IL-4 and GM-CSF as previously described (Berlyn 2001) and illustrated in FIG. 1. On day 7, the primary culture is loaded with tumor associated antigen (TAA) and antibody (Ab) and matured with a standard maturation cocktail (e.g. TNF-α/IFN-α). The culture is then combined with autologous lymphocytes and cultured for 7 days. […] Cells are then washed, fixed, and permeabilized and stained intracellularly with anti-IFN-γ-PE and analyzed by flow cytometry. […] T cells from APA assay were analyzed for IFN-γ production by intracellular cytokine staining and flow cytometry. […] Quantification of the effect of the antibody antigen combinations tested in FIG. 2 are illustrated in FIG. 3, and FIG. 4. […]

anti-Her2 IgG1: anti-Her2 IgG1 (Herceptin)
antigen presentation (IFN-γ production by CD8+ and CD4+ T cells): enhanced
